In patent US10202330B2 (dated 2019):
Where a name gives a salt, the structure may show the parent alone.

Test system: human colon cancer cell line HCT116
Assay: Cancer cell line study, alamarBlue viability assay
Format: cell-based
Settings: HCT-116, 72 h, read-out: EC50 (dose required to inhibit cell growth by 50%)

| SMILES | EC50 [µM] |
| --- | --- |
| COc1ccc2c(c1)C(N[C@H]1CC1c1ccc(OCc3ccccc3)cc1)CC2 (stereo in doubt) [Example 1, N-((trans)-2-(4-(benzyloxy)phenyl)cyclopropyl)-6-methoxy-2,3-dihydro-1H-inden-1-amine hydrochloride] | ~37.7 |
| COc1cc2c(cc1OC)C(N[C@H]1CC1c1ccc(OCc3ccccc3)cc1)CC2 (stereo in doubt) [Example 2, N-((trans)-2-(4-(benzyloxy)phenyl)cyclopropyl)-5,6-dimethoxy-2,3-dihydro-1H-inden-1-amine hydrochloride] | ~50 |
| COc1ccc2c(c1)C(N[C@H]1CC1c1ccc(-c3cccc(Cl)c3)cc1)CC2 (stereo in doubt) [Example 9, N-((trans)-2-(3′-chlorobiphenyl-4-yl)cyclopropyl)-6-methoxy-2,3-dihydro-1H-inden-1-amine hydrochloride] | ~35.1 |
| COc1cccc(-c2ccc(C3C[C@@H]3NC3CCc4ccc(OC)cc43)cc2)c1 (stereo in doubt) [Example 11, 6-methoxy-N-((trans)-2-(3′-methoxybiphenyl-4-yl)cyclopropyl)-2,3-dihydro-1H-inden-1-amine hydrochloride] | ~22.3 |
| c1ccc(C2C[C@@H]2NCCC2CCCCC2)cc1 (stereo partly drawn) [Example 12, N-trans-(2-cyclohexylethyl)-2-phenylcyclopropanamine hydrochloride] | ~63.8 |
